Measured values as given in US9266930.

Molecular target: HLA-A*0201 (human)

[…] (Plasmodium falciparum LSA, position 13, 9 amino acids) (peptide; other documents disagree on this pair)
binding affinity ratio (IC50 of standard peptide / IC50 of test peptide): 0.0006
